{
  "sequences": {"note": "The chains behind the UniProt entries cited, without tags or fusion partners.", "UniProt P23977, whole entry": "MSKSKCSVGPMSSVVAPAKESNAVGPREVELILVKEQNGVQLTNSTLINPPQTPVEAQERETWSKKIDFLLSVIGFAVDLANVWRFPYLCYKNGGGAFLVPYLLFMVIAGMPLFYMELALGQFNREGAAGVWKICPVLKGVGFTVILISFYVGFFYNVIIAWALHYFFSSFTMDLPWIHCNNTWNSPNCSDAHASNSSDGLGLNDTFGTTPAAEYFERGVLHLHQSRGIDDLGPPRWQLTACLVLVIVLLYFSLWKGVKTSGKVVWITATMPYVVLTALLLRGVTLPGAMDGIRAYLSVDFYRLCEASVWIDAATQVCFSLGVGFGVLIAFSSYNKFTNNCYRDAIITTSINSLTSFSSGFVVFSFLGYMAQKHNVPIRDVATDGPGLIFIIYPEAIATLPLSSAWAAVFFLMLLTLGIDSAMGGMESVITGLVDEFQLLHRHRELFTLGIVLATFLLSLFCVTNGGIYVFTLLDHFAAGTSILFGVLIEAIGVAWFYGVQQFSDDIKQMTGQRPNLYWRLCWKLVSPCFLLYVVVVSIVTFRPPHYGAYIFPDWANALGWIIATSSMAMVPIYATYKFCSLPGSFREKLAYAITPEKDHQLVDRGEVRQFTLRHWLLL"},
  "source": "patent US5747503A",
  "about": "“Selective inhibitors of biogenic amine transporters” (priority 1996, dated 1998)",
  "target": "T1, DA transporter (Rattus norvegicus, UniProt P23977)",
  "T1 construct": "Striata were dissected using glass manipulators; from tissue; host or cells: striatum of male Sprague-Dawley rats, membranes",
  "assay": "[^3 H]CFT binding to DA transporter",
  "settings": "Table 2; nM ± SD; rat striatum",
  "description": "For [^3 H]J2B-carbomethoxy-3B-(4-fluorophenyl)-tropane (CFT, WIN35,428) binding assays, male Sprague-Dawley rats (200 to 300 gm) were anesthetized with C02 gas, and decapitated. Striata were dissected using glass manipulators, placed in small plastic containers, and then allowed to freeze by placing the container in dry ice.\nStriata collected in this way were stored at […]. On the day of the assay, each striatum was placed in ice-cold binding buffer (BB: 55.2 mM sodium phosphate buffer, pH 7.4, 5 ml per caudate), and homogenized while still frozen with a Polytron. The homogenate was centrifuged for 10 min at 30,000×g, and the pellet was resuspended in an equal volume of BB. The homogenate was recentrifuged, and the pellet was resuspended in an equal volume of BB. An aliquot was saved for determination of protein (0.5 ml), and the remaining homogenate was brought up to a final volume of 22 ml/striatum using ice-cold BB. Typical final protein concentrations, determined with the Lowry method (Lowry, O. H., et al. J. Biol. Chem. 193: 265-275 (1951)), were 100 μg/ml. […] Aliquots of membranes were then used in the radioligand binding assays.\nThe [^3 H]nisoxetine assay for the norepinephrine transporter (NE) was carried out as described (Rothman, et al. (1993), supra; Tejani-Butt, S. M., et al. Eur. J. Pharmacol. 191:239-243 (1990)). […]",
  "data": [
    {"compound": "CNC1CC(c2ccc(Cl)c(Cl)c2)c2ccccc21", "note": "(stereo not shown) [Indatraline]", "values": [
      {"measurement": "IC50", "value": "4.32 ± 0.46", "unit": "nM"}
    ]}
  ]
}
